# Data published in EP1034782A1, “Treatment of depression by using compounds which elevate the intracellular sodium concentration” (Singer, Andrea, priority 1999, dated 2000).
# Chains of the proteins cited; added tags and fusions are not shown.
# UniProt P31645, whole entry: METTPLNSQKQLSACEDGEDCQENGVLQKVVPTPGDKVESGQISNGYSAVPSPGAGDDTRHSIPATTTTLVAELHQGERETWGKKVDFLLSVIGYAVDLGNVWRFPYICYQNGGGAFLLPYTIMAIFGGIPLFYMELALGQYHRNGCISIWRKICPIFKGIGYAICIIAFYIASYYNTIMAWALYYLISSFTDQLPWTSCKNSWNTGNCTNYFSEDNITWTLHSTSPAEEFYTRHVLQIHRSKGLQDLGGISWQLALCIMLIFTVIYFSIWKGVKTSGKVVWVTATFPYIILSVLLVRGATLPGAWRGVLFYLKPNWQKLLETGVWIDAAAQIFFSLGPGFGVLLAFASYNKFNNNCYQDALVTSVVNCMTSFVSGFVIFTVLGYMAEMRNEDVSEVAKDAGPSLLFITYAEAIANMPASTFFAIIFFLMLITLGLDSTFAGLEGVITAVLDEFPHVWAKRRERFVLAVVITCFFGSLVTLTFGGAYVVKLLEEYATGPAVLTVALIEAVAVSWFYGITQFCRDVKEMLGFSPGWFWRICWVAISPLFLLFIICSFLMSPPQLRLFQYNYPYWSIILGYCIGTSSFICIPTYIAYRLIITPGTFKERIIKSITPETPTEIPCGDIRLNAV
# Molecular target: human serotonin transporter (Homo sapiens, UniProt P31645)
# Assay: ^3H-serotonin uptake in platelets
smiles,measurement,setting,value
CC(C)=CCCC1(C)C(CC=C(C)C)CC2(CC=C(C)C)C(=O)C(CC=C(C)C)=C(O)C1(C(=O)C(C)C)C2=O (centres unmarked) [Hyperforin],IC50,,0.887 µM
same,inhibition at 5 µM,read-out: uptake inhibition,~75%
